Assay results: PMC4835042 (Bioorganic & medicinal chemistry letters, 2015)

By UniProt entry, the sequences of proteins in these tests, tags left out. Residues count along the entry.
UniProt P41594, 21-1212: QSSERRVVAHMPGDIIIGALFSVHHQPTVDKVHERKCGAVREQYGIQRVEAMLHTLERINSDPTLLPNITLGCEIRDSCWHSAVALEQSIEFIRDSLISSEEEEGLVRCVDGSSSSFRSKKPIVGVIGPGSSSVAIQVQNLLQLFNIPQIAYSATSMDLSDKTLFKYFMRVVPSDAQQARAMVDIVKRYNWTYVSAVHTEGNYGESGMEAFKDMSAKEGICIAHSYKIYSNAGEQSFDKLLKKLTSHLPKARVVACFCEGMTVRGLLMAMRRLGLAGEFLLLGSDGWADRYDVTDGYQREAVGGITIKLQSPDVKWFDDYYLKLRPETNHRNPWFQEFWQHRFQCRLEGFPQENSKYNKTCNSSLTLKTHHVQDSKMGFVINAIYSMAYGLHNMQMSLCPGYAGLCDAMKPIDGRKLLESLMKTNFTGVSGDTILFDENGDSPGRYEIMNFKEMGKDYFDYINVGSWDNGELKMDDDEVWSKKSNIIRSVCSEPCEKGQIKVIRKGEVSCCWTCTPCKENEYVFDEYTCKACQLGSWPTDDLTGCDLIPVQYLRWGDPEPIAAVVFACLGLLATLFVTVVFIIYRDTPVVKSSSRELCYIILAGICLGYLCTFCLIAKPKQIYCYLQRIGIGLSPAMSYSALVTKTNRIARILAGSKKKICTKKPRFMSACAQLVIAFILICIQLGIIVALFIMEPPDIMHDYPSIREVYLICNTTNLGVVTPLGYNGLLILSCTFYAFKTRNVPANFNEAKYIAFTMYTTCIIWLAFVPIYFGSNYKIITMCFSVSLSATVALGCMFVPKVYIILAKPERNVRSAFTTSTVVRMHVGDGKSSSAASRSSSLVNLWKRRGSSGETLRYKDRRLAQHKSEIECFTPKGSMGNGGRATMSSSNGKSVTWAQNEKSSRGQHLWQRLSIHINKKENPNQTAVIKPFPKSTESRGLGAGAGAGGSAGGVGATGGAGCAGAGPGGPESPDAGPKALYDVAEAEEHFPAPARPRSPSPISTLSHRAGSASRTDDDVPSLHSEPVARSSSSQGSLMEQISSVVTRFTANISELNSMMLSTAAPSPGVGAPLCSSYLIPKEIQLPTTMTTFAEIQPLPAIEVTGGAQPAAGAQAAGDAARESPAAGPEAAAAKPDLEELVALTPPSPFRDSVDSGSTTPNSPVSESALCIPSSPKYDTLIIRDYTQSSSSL
UniProt Q14832, 23-879: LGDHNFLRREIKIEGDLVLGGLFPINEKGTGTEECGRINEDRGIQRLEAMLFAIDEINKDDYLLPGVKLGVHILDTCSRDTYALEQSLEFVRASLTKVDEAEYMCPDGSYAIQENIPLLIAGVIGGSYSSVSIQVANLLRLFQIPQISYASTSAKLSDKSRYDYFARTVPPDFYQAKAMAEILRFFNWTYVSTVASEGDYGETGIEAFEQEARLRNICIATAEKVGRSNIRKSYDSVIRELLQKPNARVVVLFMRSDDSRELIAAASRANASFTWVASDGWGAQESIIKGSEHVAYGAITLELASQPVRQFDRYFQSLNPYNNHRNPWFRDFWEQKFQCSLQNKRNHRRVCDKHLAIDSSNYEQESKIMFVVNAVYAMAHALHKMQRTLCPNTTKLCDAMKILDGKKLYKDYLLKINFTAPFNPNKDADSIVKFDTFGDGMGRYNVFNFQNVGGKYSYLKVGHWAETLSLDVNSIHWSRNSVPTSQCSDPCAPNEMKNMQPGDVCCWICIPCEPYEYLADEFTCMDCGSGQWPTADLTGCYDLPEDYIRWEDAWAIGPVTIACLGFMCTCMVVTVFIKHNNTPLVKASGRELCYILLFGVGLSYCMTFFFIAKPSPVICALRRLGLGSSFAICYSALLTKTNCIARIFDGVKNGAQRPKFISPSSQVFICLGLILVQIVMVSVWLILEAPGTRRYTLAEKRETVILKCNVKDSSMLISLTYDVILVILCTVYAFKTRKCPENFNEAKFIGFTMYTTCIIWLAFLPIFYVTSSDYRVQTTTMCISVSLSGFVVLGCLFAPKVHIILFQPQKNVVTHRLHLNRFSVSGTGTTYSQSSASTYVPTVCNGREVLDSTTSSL

Legend:
human mGlu5 = human mGlu5 (Homo sapiens, UniProt P41594); conditions: human mGlu5 expressing cells
human mGlu3 = human mGlu3 (Homo sapiens, UniProt Q14832)

O=C1c2cc(COc3ccccc3)nn2CCN1c1ccc(F)cn1 [4k]
glutamate CRC fold-shift (FS) (human mGlu5): 7.7
GSH/CN trapping result (GSH/CN trapping studies): benign profile
mGlu3/mGlu5 EC50 ratio (human mGlu3): 52
